Literature values as cited in US20260382598A1, “COMBINATION TREATMENT TO PREVENT OR MINIMIZE CHEMOTHERAPY-INDUCED PERIPHERAL NEUROPATHY” (published 2026).

Columns and labels:
[1] = test system: TNFα; settings: read-out: IC50, whole blood LPS stimulated TNFα; cited from earlier work
[2] = test system: p38α; settings: read-out: Ki for p38α; cited from earlier work
[3] = test system: p38γ; settings: p38α versus p38γ; cited from earlier work
[4] = test system: p38δ; settings: p38α versus p38δ; cited from earlier work
[5] = test system: p38β; settings: read-out: Ki for p38β; cited from earlier work

In the case of Cn1c(NC[C@@H](N)Cc2ccccc2)nc(-c2ccncc2)c(-c2ccc3ccccc3c2)c1=O, the IC50 [1] is given as 3 nM, the Ki [2] is given as 0.5 nM and the “selectivity against p38γ” value [3] is given as greater than 1000 fold. For the same compound, the “selectivity against p38δ” value [4] was greater than 1000 fold and the Ki [5] was 36 nM.
